Values of other authors as cited in paper PMC3867503, “Structure-Activity Relationships of Benzbromarone Metabolites and Derivatives as EYA Inhibitory Anti-Angiogenic Agents” (PLoS ONE, 2013).

Molecular target: T1, recombinant human EYA3 (Homo sapiens, UniProt Q99504)
T1 construct: a splice variant of Q99504 corresponding to isoform 2 and missing residues 1 - 126; made in house
T1 sequence (Q99504 1-447 isoform Q99504-2): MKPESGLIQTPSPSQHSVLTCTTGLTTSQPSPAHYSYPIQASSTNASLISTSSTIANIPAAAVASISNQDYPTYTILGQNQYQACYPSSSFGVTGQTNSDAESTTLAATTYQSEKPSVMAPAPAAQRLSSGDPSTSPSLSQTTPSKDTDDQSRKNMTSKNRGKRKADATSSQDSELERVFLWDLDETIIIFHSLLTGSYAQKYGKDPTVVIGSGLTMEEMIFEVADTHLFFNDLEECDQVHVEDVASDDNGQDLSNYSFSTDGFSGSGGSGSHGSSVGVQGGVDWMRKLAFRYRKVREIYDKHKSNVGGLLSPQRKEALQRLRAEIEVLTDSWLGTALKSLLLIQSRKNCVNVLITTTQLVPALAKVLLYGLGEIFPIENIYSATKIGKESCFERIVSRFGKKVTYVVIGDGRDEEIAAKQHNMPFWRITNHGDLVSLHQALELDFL
Parameters: method as in PMID 22545090
Conditions: recombinant EYA3, substrate pNPP; reported previously; read-out: IC50 (95% confidence intervals), pNPP hydrolysis by EYA3; cited from earlier work

CCc1oc2ccccc2c1C(=O)c1cc(Br)c(O)c(Br)c1 [BBR, Benzbromarone]
IC50: 8.1 µM
